Values of other authors as cited in US9849143B2, “Broad spectrum antiviral and methods of use” (The Burlington HC Research Group, Inc., priority 2006, dated 2017).
Read-outs that look alike come from different tables or passages of the source.

How the values were obtained:
[1] = mice, cited from earlier work
[2] = rhesus macaques, cited from earlier work

SMILES: CNCCCNCCSP(=O)(O)O
- maximally tolerated dose (MTD) ([1]; administered i.p.): 893 mg/kg BW
- maximally tolerated dose (MTD) ([1]; administered p.o.): 1488 mg/kg BW
- Concentration (plasma) ([2]; 1 h after duodenal administration of 150 mg/kg BW of parent drug): 11750 ng/mL
- Concentration (plasma) ([2]; 2 h after duodenal administration of 150 mg/kg BW of parent drug): 17080 ng/mL
- Concentration (plasma) ([2]; 6 h after duodenal administration of 150 mg/kg BW of parent drug): 15500 ng/mL
